# Data: ChEMBL document CHEMBL5726652, “Oxazole orexin receptor antagonists” (2017)
# Amino acid sequences for entries named in this document (tags omitted).
# UniProt O43614, whole entry: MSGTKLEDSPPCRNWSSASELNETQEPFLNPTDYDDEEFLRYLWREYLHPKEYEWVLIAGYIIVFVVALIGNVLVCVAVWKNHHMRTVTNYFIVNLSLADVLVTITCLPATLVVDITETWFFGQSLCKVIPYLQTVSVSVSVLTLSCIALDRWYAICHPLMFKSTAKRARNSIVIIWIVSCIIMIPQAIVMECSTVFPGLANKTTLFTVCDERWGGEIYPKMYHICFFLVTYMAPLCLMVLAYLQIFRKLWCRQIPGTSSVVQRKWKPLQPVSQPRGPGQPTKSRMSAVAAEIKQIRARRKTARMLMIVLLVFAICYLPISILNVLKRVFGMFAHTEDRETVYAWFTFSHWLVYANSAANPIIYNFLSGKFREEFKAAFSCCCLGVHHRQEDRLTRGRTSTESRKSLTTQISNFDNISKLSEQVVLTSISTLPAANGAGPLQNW
# Target: Orexin receptor type 2 (Homo sapiens, UniProt O43614)
# Experiment: FLIPR Ca2+ Flux Assay: For intracellular calcium measurements, Chinese hamster ovary (CHO) cells expressing the rat orexin-1 receptor or the human orexin-2 receptor, are grown in Iscove's modified DMEM containing 2 mM L-glutamine, […], 1% hypoxanthine-thymidine supplement, 100 U/ml penicillin, 100 μg/ml streptomycin and 10% heat-inactivated fetal calf serum (FCS). The cells are seeded at 20,000 cells/well into Becton-Dickinson black 384-well clear bottom sterile plates coated with poly-D-lysine. All reagents were from GIBCO-Invitrogen Corp. The seeded plates are incubated overnight at 37° C. and 5% CO2. Ala-6,12 human orexin-A as the agonist is prepared as a 1 mM stock solution in 1% bovine serum albumin (BSA) and diluted in assay buffer (HBSS containing 20 mM HEPES, 0.1% BSA and 2.5 mM probenecid, pH7.4) for use in the assay at a final concentration of 70 pM. Test compounds are prepared as 10 mM stock solution in DMSO, then diluted in 384-well plates, first in DMSO, then assay buffer. On the day of the assay, cells are washed 3 times with 100 μl assay buffer and then incubated for 60 min (37° C., 5% CO2) in 60 μl assay buffer containing 1 μM Fluo-4AM ester, 0.02% pluronic acid, and 1% BSA. The dye loading solution is then aspirated and cells are washed 3 times with 100 μl assay buffer. 30 μl of that same buffer is left in each well. […]
# Format: cell-based
compound,measurement,value
CC[C@](C)(O)c1nc([C@@H]2CC[C@@H](C)N(C(=O)c3ccsc3-n3nccn3)C2)oc1C,IC50,15 nM
